The target of this assay is T1, Protein deacetylase HDAC6 (Homo sapiens, UniProt Q9UBN7).
T1 sequence (Q9UBN7 whole entry): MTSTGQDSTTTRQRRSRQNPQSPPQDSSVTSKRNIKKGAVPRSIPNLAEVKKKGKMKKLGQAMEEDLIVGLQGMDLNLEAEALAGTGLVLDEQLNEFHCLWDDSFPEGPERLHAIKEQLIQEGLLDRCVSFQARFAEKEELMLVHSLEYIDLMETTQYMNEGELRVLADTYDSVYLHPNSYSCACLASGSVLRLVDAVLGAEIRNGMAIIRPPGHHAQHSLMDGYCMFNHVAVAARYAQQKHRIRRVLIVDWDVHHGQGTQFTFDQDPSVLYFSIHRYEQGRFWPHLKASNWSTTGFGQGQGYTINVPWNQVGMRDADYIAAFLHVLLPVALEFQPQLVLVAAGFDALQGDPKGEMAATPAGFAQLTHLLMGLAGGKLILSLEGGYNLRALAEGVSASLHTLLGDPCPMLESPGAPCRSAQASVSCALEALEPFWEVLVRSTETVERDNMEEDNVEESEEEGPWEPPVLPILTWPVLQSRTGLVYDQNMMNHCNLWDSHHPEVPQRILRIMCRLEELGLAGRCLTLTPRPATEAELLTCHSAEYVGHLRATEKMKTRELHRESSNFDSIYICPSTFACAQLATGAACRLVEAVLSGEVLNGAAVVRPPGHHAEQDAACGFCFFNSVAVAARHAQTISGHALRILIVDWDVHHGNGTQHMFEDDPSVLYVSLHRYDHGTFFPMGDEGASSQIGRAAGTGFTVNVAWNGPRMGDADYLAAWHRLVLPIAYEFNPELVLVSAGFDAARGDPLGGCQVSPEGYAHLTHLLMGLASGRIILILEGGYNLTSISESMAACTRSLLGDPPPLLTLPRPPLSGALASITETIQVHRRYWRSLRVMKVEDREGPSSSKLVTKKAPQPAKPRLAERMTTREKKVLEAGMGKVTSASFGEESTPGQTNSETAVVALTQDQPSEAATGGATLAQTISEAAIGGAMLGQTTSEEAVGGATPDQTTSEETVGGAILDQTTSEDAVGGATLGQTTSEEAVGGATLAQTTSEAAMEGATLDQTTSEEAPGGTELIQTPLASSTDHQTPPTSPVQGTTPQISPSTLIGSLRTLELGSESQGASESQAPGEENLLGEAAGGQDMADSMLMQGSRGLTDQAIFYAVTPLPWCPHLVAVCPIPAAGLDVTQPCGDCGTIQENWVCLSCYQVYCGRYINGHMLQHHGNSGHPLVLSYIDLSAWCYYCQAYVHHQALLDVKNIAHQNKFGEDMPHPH
Nature of the assay: Binding affinity to human HDAC6 assessed as residence time by two-step reversible inhibition model.

The results in this text go back to ChEMBL document CHEMBL5042469, “Unique Molecular Interaction with the Histone Deacetylase 6 Catalytic Tunnel: Crystallographic and Biological Characterization of a Model Chemotype” (J Med Chem, 2021).

Consider `O=C(CCCCCCNC(=O)c1cnc(N(c2ccccc2)c2ccccc2Cl)nc1)NO` [CITARINOSTAT], for which the IC50 entry is on record as “Not Active”.
